Results taken from ChEMBL document CHEMBL1129964, “Design of highly potent noncovalent thrombin inhibitors that utilize a novel lipophilic binding pocket in the thrombin active site” (J Med Chem, 1997).

Target: Prothrombin (Homo sapiens, UniProt P00734)
Assay: Binding affinity towards thrombin

Ki: 3 nM
Compound: CS(=O)(=O)N[C@H](Cc1ccccc1)C(=O)N1CCC[C@H]1C(=O)NCC1CCC(N)CC1 (stereo partly specified)
